## scFv variants of Ab-14 (heavy chain) against a SARS-CoV-2 spike peptide

Target: peptide PDVDLGDISGINAS, taken from heptad repeat 2 (HR2) of SARS-CoV-2 spike.

The variants keep the light chain, the linker and the frameworks of Ab-14 (scFv order VH, a 15-residue (Gly4Ser)3 linker, VL).
VH: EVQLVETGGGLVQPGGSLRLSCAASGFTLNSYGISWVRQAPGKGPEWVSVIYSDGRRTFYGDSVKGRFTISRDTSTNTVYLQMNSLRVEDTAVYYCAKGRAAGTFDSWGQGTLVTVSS
VL: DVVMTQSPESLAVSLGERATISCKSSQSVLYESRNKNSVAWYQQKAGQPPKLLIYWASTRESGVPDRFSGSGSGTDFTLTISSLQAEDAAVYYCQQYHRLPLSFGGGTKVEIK

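The starting antibody came from a phage panning campaign against this peptide. AAYL49 was designed without a model: most single CDR substitutions and a random sample of double and triple ones. AlphaSeq pools MATa yeast showing the antibodies with MATalpha yeast showing the peptide. Pairs that bind mate more often; barcode pairs of the diploids are counted by sequencing. Each replicate has its own calibration line, from reference interactions of the BCL2 family. Mating was done three times.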

Each variant is given by its three heavy chain CDRs, as the data file delimits them; those of the parent are GFTLNSYGIS, VIYSDGRRTFYGDSVK, GRAAGTFDS.
Scale: log10 of Kd in nM, estimated from mating counts; low values are strong binders.
A pair that was not seen in that replicate is written "nd"; this usually means weak binding, but a binder can also be missed.
Empty control strains, which show no peptide, gave a signal in 15% of pairings with library AAYL49; the median was 4.06 and 95% of these signals were weaker than 2.83. No background was subtracted. The control count says in how many pairings with the empty strains this scFv gave a signal, with their mean in brackets.

CDR-H1	CDR-H2	CDR-H3	log10 Kd, replicates	signal with controls
GFTLNSYGIS	VIYSDGRRTFLGVSVK	GRAAGTFDN	nd / 3.98 / nd	1/9 (2.37)
GFTLNSAGLS	VIYSDGKRTFYGDSVK	GRAAGTFDS	nd / nd / nd	1/9 (3.45)
GFTLNSYFIS	VIYSDHDRTFYGDSVK	GRAAGTFDS	nd / nd / nd	1/9 (3.81)
KFTANSYGIS	VIYSDGRRTFYGDSVK	ARAAGTFDS	nd / nd / nd	0/9
GFTLNSYGIS	VIYSDWRRTFYGDSVK	GRAAGTFNG	nd / nd / nd	0/9
GFTLNSYGIS	VIYSEGRRNFYADSVK	GRAAGTFDS	nd / nd / nd	3/9 (3.69)
FFTLNSYGIS	VIYSDGRRTFYGDSVK	GRAAGTFMS	nd / nd / nd	1/9 (2.37)
GFTNNSYGIS	VIYSDGRRTFYGDSVK	GVAAGTFDT	nd / nd / nd	2/9 (4.93)
GFTLNYYGIS	VIYSDGRRTFSYDSVK	GRAAGTFDS	nd / nd / nd	1/9 (4.27)
GETLNSYGIA	VIYSDGRRYFYGDSVK	GRAAGTFDS	nd / nd / nd	3/9 (3.97)
GFTLNSYGIS	KIYSDPRRTFNGDSVK	GRAAGTFDS	nd / nd / nd	0/9
GFTLMSYGIS	VIYSDGRRTFYGDSVK	GRAAHTHDS	2.59 / 2.25 / 2.60	7/9 (4.61)
GFTLNSYGIS	VIYSDGRRTQLGDSVK	GAAAGTFDS	nd / nd / nd	0/9
GFTLVSYLIV	VIYSDGRRTFYGDSVK	GRAAGTFDS	nd / 3.24 / nd	1/9 (3.57)
AFTLGSYGIS	VIYSDGRRTFYGDSVK	GRAAGTFDS	0.97 / 1.30 / 1.31	2/9 (4.24)
GRTLNSYGCS	VIYTDGRRTFYGDSVK	GRAAGTFDS	nd / 3.59 / nd	3/9 (3.10)
GFNLNSYGIS	VIYSDGRRTFYFDSNK	GRAAGTFDS	nd / nd / nd	1/9 (4.12)
GFTLNSYGIS	VIYEDGFRTFYGDVVK	GRAAGTFDS	nd / nd / nd	0/9
GVTLNSYGIS	VIYSDGRRTFYGDSVK	GNAAGTFAS	5.59 / 5.02 / 5.67	2/9 (4.70)
GFTLNSYGIS	PIYSDGRRTQYGDSVK	GRAAGTFES	nd / nd / nd	1/9 (3.82)
GFTLNSYGCS	VIYSDSRRTFVGDSVK	GRAAGTFDS	4.79 / 4.32 / 4.45	4/9 (5.41)
GFTLNSYGIS	VIYCDGRRTFYLDSMK	GRAAGTFDS	nd / nd / nd	0/9
GFTLNSYGIS	VISSDGWRTFNGDSVK	GRAAGTFDS	nd / nd / nd	0/9
GFTLNSYGIS	VIYSDGRRTFYGDSVK	GRAAGWFDK	nd / nd / nd	0/9
GFTLNSYGIS	VIYSDGRRTFYGDSVR	GRGAVTFDS	nd / nd / nd	1/9 (3.62)
GFTLNSYGIS	VIYSDGMRTFYKDSVK	GGAAGTFDS	0.78 / 0.93 / 0.92	3/9 (4.06)
GFDLNSYGIS	VIYSDGRRQFYGDSAK	GRAAGTFDS	0.86 / 1.07 / 0.99	3/9 (4.43)
FFTLHSRGIS	VIYSDGRRTFYGDSVK	GRAAGTFDS	nd / nd / nd	3/9 (3.69)
GQTLNSYGIS	VSYSDGRRTFYGDSVK	GRAAETFDS	4.08 / nd / 4.91	4/9 (3.81)
GFHSNSYGIS	VIYSDGRLTFYGDSVK	GRAAGTFDS	nd / 3.64 / 4.49	8/9 (4.40)
RFTLNSYGIS	VIYSDGRRTNYGDSVK	GRAIGTFDS	5.47 / 3.52 / 3.80	5/9 (4.41)
GFTLNSIGIS	VDYSDGRRTFYGDSVK	GRAAGIFDS	nd / 3.42 / nd	2/9 (3.94)
GFTLNSYGIS	VIYSDGRRTSSGDSVK	GRGAGTFDS	nd / 4.63 / 5.45	1/9 (3.58)
GAYLNSYGIS	VIYSDGRRTFYGDAVK	GRAAGTFDS	3.62 / 3.25 / 4.22	6/9 (4.41)
GFTLNSYGIS	VSYSDGRRTFYGDSVK	GRMAGTFDS	3.23 / nd / 2.72	1/9 (3.36)

From the list, the first 4 with no signal in any replicate:

CDR-H1,CDR-H2,CDR-H3,"log10 Kd, replicates",signal with controls
GFTLNSAGLS,VIYSDGKRTFYGDSVK,GRAAGTFDS,nd / nd / nd,1/9 (3.45)
GFTLNSYFIS,VIYSDHDRTFYGDSVK,GRAAGTFDS,nd / nd / nd,1/9 (3.81)
KFTANSYGIS,VIYSDGRRTFYGDSVK,ARAAGTFDS,nd / nd / nd,0/9
GFTLNSYGIS,VIYSDWRRTFYGDSVK,GRAAGTFNG,nd / nd / nd,0/9

For reference, the parent read 0.65 as the reference entry and 4.11 (one replicate of three) as a member of this library.

From the AlphaSeq antibody data of Engelhart et al. 2022 (doi:10.1038/s41597-022-01779-4), copy in the FLAb collection.